The record followed here is ChEMBL document CHEMBL6092185, “Discovery of glycosidated glycyrrhetinic acid derivatives: Natural product-based soluble epoxide hydrolase inhibitors” (Eur J Med Chem, 2024).

Holding throughout (format): functional, organism-based
The subject of assay [1] is Mus musculus. Description: Analgesic activity in BALB/c mouse nodel of acetic acid-induced writhing at 20 mg/kg, IG measured for 30 mins.
The test system of assay [2] is Mus musculus. As to the kind of experiment: Anti-inflammatory activity in CD-1 mouse model of acute pancreatitis assessed as decrease in cerulein-induced edema at 10 mg/kg, ip administered 0.5 to 2.5 hrs post-cerulein administration measured after 6 hrs post-cerulein administration by H and E staining based analysis. The conditions noted are these: time 0.5-5.5 hrs.

For assay [3], the system named is Mus musculus. Description: Anti-inflammatory activity in CD-1 mouse model of acute pancreatitis assessed as decrease in cerulein-induced inflammation at 10 mg/kg, ip administered 0.5 to 2.5 hrs post-cerulein administration measured after 6 hrs post-cerulein administration by H and E staining based analysis. As to conditions: time 0.5-5.5 hrs.
Assay [4] has as its system Mus musculus. Description: Anti-inflammatory activity in CD-1 mouse model of acute pancreatitis assessed as decrease in cerulein-induced parenchymal atrophy at 10 mg/kg, ip administered 0.5 to 2.5 hrs post-cerulein administration measured after 6 hrs post-cerulein administration by H and E staining based analysis. The conditions noted are these: time 0.5-5.5 hrs.
Assay [5] deals with Mus musculus. Description: Anti-inflammatory activity in CD-1 mouse model of acute pancreatitis assessed as decrease in total histopathological score at 10 mg/kg, ip administered 0.5 to 2.5 hrs post-cerulein administration measured after 6 hrs post-cerulein administration by H and E staining based analysis. As to conditions: time 0.5-5.5 hrs.
Assay [6] deals with Mus musculus. Description: Anti-inflammatory activity in CD-1 mouse model of acute pancreatitis assessed as decrease in plasma TNF-alpha level at 10 mg/kg, ip administered 0.5 to 2.5 hrs post-cerulein administration measured after 6 hrs post-cerulein administration by ELISA. As to conditions: time 0.5-5.5 hrs.
Assay [7] has as its system Mus musculus. Description: Anti-inflammatory activity in CD-1 mouse model of acute pancreatitis assessed as decrease in plasma IL-6 level at 10 mg/kg, ip administered 0.5 to 2.5 hrs post-cerulein administration measured after 6 hrs post-cerulein administration by ELISA. As to conditions: time 0.5-5.5 hrs.
The subject of assay [8] is Mus musculus. As to the kind of experiment: Anti-inflammatory activity in CD-1 mouse model of acute pancreatitis assessed as increase in ratio of 8,9-EET to DHET level in pancreas at 10 mg/kg, ip administered 0.5 to 2.5 hrs post-cerulein administration measured after 6 hrs post-cerulein administration by UPLC-MS/MS analysis. The conditions noted are these: time 0.5-5.5 hrs.

Assay [9] concerns Mus musculus. As to the kind of experiment: Anti-inflammatory activity in CD-1 mouse model of acute pancreatitis assessed as increase in ratio of 11,12-EET to DHET level in pancreas at 10 to 20 mg/kg, ip administered 0.5 to 2.5 hrs post-cerulein administration measured after 6 hrs post-cerulein administration by UPLC-MS/MS analysis. As to conditions: dose 10-20 mg/kg, time 0.5-5.5 hrs.

For assay [10], the system named is Mus musculus. As to the kind of experiment: Anti-inflammatory activity in CD-1 mouse model of acute pancreatitis assessed as increase in ratio of 14,15-EET to DHET level in pancreas at 10 to 20 mg/kg, ip administered 0.5 to 2.5 hrs post-cerulein administration measured after 6 hrs post-cerulein administration by UPLC-MS/MS analysis. The conditions noted are these: dose 10-20 mg/kg, time 0.5-5.5 hrs.

Assay [11] has as its system Mus musculus. Description: Anti-inflammatory activity in CD-1 mouse model of acute pancreatitis assessed as increase in ratio of 8,9-EET to DHET level in plasma at 10 mg/kg, ip administered 0.5 to 2.5 hrs post-cerulein administration measured after 6 hrs post-cerulein administration by UPLC-MS/MS analysis. As to conditions: time 0.5-5.5 hrs.
The test system of assay [12] is Mus musculus. Description: Anti-inflammatory activity in CD-1 mouse model of acute pancreatitis assessed as increase in ratio of 11,12-EET to DHET level in plasma at 10 mg/kg, ip administered 0.5 to 2.5 hrs post-cerulein administration measured after 6 hrs post-cerulein administration by UPLC-MS/MS analysis. As to conditions: time 0.5-5.5 hrs.
Assay [13] deals with Mus musculus. As to the kind of experiment: Anti-inflammatory activity in CD-1 mouse model of acute pancreatitis assessed as increase in ratio of 14,15-EET to DHET level in plasma at 10 mg/kg, ip administered 0.5 to 2.5 hrs post-cerulein administration measured after 6 hrs post-cerulein administration by UPLC-MS/MS analysis. The conditions noted are these: time 0.5-5.5 hrs.

Active and inactive are the calls of the source. The rule behind the calls is not given here.

With `CC1(C)[C@@H](O[C@H]2OC[C@@H](O)[C@@H](O)[C@@H]2O)CC[C@]2(C)[C@H]3C(=O)C=C4[C@H]5C[C@@](C)(CNC(=O)NCC6CCOCC6)CC[C@]5(C)CC[C@@]4(C)[C@]3(C)CC[C@@H]12`, the Activity result in the assay with Mus musculus [1] was “Active; Outperformed Both Celecoxib And Ec5026”.

Take `CC1(C)[C@@H](O[C@@H]2O[C@H](CO)[C@@H](O)[C@H](O)[C@H]2O)CC[C@]2(C)[C@H]3C(=O)C=C4[C@H]5C[C@@](C)(CNC(=O)NCC6CCOCC6)CC[C@]5(C)CC[C@@]4(C)[C@]3(C)CC[C@@H]12`: in the assay on Mus musculus [1], the Activity entry is recorded as “Active; Outperformed Both Celecoxib And Ec5026”.

Consider `CC1(C)[C@@H](O[C@H]2O[C@H](CO)[C@@H](O)[C@H](O)[C@@H]2O)CC[C@]2(C)[C@H]3C(=O)C=C4[C@H]5C[C@@](C)(CNC(=O)NCC6CCOCC6)CC[C@]5(C)CC[C@@]4(C)[C@]3(C)CC[C@@H]12`, for which the result with Mus musculus [2], in the assay with Mus musculus [3], in the assay on Mus musculus [4], in the assay with Mus musculus [5], in the assay on Mus musculus [6] and with Mus musculus [7] was Active. For the same compound, the outcome in the assay with Mus musculus [8], in the assay with Mus musculus [9], with Mus musculus [10], in the assay on Mus musculus [11], in the assay with Mus musculus [12] and in the assay with Mus musculus [13] was Active. Besides, the Activity result in the assay with Mus musculus [1] is listed as “Active; Exhibited Most Remarkable Effect; Outperformed Both Celecoxib And Ec5026”.
